Results reported in PubChem BioAssay AID651800 (The Scripps Research Institute Molecular Screening Center, 2012).
Only a part is listed here, and it is no random draw. Activity calls are given as the source filed them. Cut-off read from the data, not from the text of the source: active = inhibition above about 19%; inactive = the rest.

system: T-cell receptor (TCR); test: inhibitors of human TCR-CD3 interaction, primary screen, biochemical, fluorescence, TAMRA-labeled TCR probe (AID 651800); settings: at 9.4 µM, stronger effect = higher value;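 note: recombinant mutant TCR 2C K166C tagged with TAMRA read by polarization; 0% = receptor in buffer alone and 100% = receptor with positive control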

Q: Which inhibition does the source give for `O=[As](O)(c1ccccc1)c1ccc(O)cc1` here?
A: Its inhibition is inactive: -0.44%.

Q: How did the inhibition turn out when `O=[N+]([O-])c1ncn(CCn2cnc([N+](=O)[O-])n2)n1` was run?
A: Its inhibition is inactive: -0.55%.

Q: How did the inhibition turn out when `CC(=O)NC(SC(=S)N(C)C)C(Cl)(Cl)Cl` (centres undefined) was run?
A: Its inhibition is inactive: 2.58%.

Q: How did the inhibition turn out when `O=P1(N(CCCl)CCCl)OCCC2CCCCN21` (centres undefined) was run?
A: Its inhibition is inactive: -10.4%.

Q: With `Cc1ccc(NP(=O)(Oc2cccc(C)c2)Oc2cccc(C)c2)nc1` as the molecule, how does the inhibition read?
A: The inhibition was inactive: -3.28%.

Q: For `c1ccc(-c2nn[nH]n2)c(-c2nn[nH]n2)c1`, which inhibition is on record?
A: Its inhibition is inactive: -2.5%.

Q: How did the inhibition turn out when `CCNC(=S)/N=C(\N)N[N+](=O)[O-]` was run?
A: The inhibition was inactive: -4.48%.

Q: Which inhibition does the source give for `O=C(NC1CCS(=O)(=O)C1)NP(=S)(Oc1ccccc1)Oc1ccccc1` (centres undefined) here?
A: Its inhibition is inactive: -4.23%.

Q: Which inhibition does the source give for `O=c1c2cc([N+](=O)[O-])ccc2[nH]c2c([N+](=O)[O-])cc([N+](=O)[O-])cc12` here?
A: Its inhibition is inactive: -15.3%.

Q: How did the inhibition turn out when `CN(C)C(=O)Oc1noc2ccccc12` was run?
A: The inhibition was inactive: -9.2%.

Q: With `CC(NC(=O)COC(=O)C(O)(c1ccccc1)c1ccccc1)c1ccccc1` (centres undefined) as the molecule, how does the inhibition read?
A: Its inhibition is inactive: -6.3%.

Q: `Cc1ccccc1OP(=O)(Nc1ccccn1)Oc1ccccc1C` was tested. Which inhibition did it give?
A: Its inhibition is inactive: -6.48%.

Q: With `CCC(=O)N1C2C3N(C(=O)CC)C1C1N(C(=O)CC)C(C(N1C(=O)CC)N3C(=O)CC)N2C(=O)CC` as the molecule, how does the inhibition read?
A: Its inhibition is inactive: 3.51%.

Q: With `O=C(OC1CN2CCC1CC2)c1ccccc1` (centres undefined) as the molecule, how does the inhibition read?
A: Its inhibition is inactive: -4.55%.

Q: For `Cc1ccc(OP(=O)(Nc2ccccn2)Oc2ccc(C)cc2)cc1`, which inhibition is on record?
A: Its inhibition is inactive: 4.34%.

Q: With `CC(=O)NC(SC(=S)N(CC(C)C)CC(C)C)C(Cl)(Cl)Cl` (centres undefined) as the molecule, how does the inhibition read?
A: The inhibition was inactive: -9.2%.

Q: For `COC(=O)c1cc2c(s1)N=C(c1ccccc1)N(C)P2(=O)N1CCOCC1` (centres undefined), which inhibition is on record?
A: Its inhibition is inactive: 5.09%.

Q: `CC(C)(C)C(=O)NC(Sc1ccccc1)C(Cl)(Cl)Cl` (centres undefined) was tested. Which inhibition did it give?
A: Its inhibition is inactive: 4.49%.

Q: With `CCc1cc(O)c([N+](=O)[O-])c(C)c1[N+](=O)[O-]` as the molecule, how does the inhibition read?
A: The inhibition was inactive: 2%.

Q: With `CCOc1ccc(C2=NCC(CBr)S2)cc1` (centres undefined) as the molecule, how does the inhibition read?
A: The inhibition was inactive: -2.21%.

Q: `O=P1(Nc2nc3ccc(Cl)cc3s2)COc2ccccc2O1` (centres undefined) was tested. Which inhibition did it give?
A: The inhibition was inactive: -3.02%.

Q: Which inhibition does the source give for `CC(=O)Nc1ccc(Oc2c([N+](=O)[O-])cc([N+](=O)[O-])cc2[N+](=O)[O-])cc1` here?
A: Its inhibition is inactive: 11.5%.

Q: With `CC(=O)Nc1ccc([As](=O)(O)O)c(O)c1` as the molecule, how does the inhibition read?
A: The inhibition was inactive: 4.48%.

Q: With `C[C@H]1OP(=O)(Oc2ccccc2)C[C@@H]2O[C@@H]21` (some centres undefined) as the molecule, how does the inhibition read?
A: Its inhibition is inactive: -4.63%.

Q: `C[C@@H]1C=CCP(=O)(Oc2ccccc2)O1` (some centres undefined) was tested. Which inhibition did it give?
A: Its inhibition is inactive: -2.85%.

Q: How did the inhibition turn out when `Cc1ccccc1CN(C)C(=O)COC(=O)C(O)(c1ccccc1)c1ccccc1` was run?
A: The inhibition was inactive: -2.12%.

Q: How did the inhibition turn out when `COC(=O)C1(C)COP(=O)(NCc2ccccc2)OC1` (centres undefined) was run?
A: The inhibition was inactive: 1.19%.

Q: With `CC(=O)c1ccc(N2CC2c2ccncc2)cc1` (centres undefined) as the molecule, how does the inhibition read?
A: The inhibition was inactive: -0.16%.

Q: With `N#C/C(=C\c1ccc(N(CCBr)CCBr)cc1)C(N)=O` as the molecule, how does the inhibition read?
A: The inhibition was inactive: -3.05%.

Q: Which inhibition does the source give for `CN1CCCC(OC(=O)C(c2ccccc2)c2ccccc2)C1` (centres undefined) here?
A: Its inhibition is inactive: 2.35%.

Q: How did the inhibition turn out when `Clc1ccc(Cl)c(NC2=NCC(CBr)S2)c1` (centres undefined) was run?
A: Its inhibition is inactive: -0.63%.

Q: How did the inhibition turn out when `Cc1ccc(OP(=O)(Nc2nccs2)Oc2ccc(C)cc2)cc1` was run?
A: The inhibition was inactive: 2.25%.

Q: For `COc1ccccc1OP(=O)(Nc1ccc(C)cn1)Oc1ccccc1OC`, which inhibition is on record?
A: The inhibition was inactive: -6.04%.

Q: Which inhibition does the source give for `Cc1ccc(N/C(=N/P(=O)(N2CCOCC2)N2CCOCC2)N2CCOCC2)cc1` here?
A: Its inhibition is inactive: 6.36%.

Q: `CN(C(=O)Cc1ccc(Cl)c(Cl)c1)[C@H]1CCCC[C@H]1N1CCCC1` was tested. Which inhibition did it give?
A: The inhibition was inactive: -4.01%.

Q: Which inhibition does the source give for `NC(=O)c1cc([N+](=O)[O-])cc([N+](=O)[O-])c1N` here?
A: Its inhibition is inactive: 4.92%.

Q: Which inhibition does the source give for `O=C(NC(Sc1ccncn1)C(Cl)(Cl)Cl)c1ccccc1` (centres undefined) here?
A: Its inhibition is inactive: -1.18%.

Q: Which inhibition does the source give for `Oc1ccccc1CNc1ccccn1` here?
A: The inhibition was inactive: -2.21%.

Q: For `Nc1cc(N)c2nonc2c1[N+](=O)[O-]`, which inhibition is on record?
A: The inhibition was inactive: 8.94%.

Q: Which inhibition does the source give for `CC(C)CC(=O)NC(Sc1ccc(Cl)cc1)C(Cl)(Cl)Cl` (centres undefined) here?
A: The inhibition was inactive: -0.06%.

Q: For `CCn1c(=O)n(C2CCN(CC3CCCCCCC3)C[C@H]2CO)c2ccccc21` (some centres undefined), which inhibition is on record?
A: The inhibition was inactive: -1.3%.

Q: How did the inhibition turn out when `Cc1ccc(NP(=O)(Oc2ccccc2F)Oc2ccccc2F)nc1` was run?
A: The inhibition was inactive: 4.15%.

Q: How did the inhibition turn out when `CN(C(=O)Cc1ccc(Cl)c(Cl)c1)[C@H]1CCCC[C@@H]1N1CCCC1` was run?
A: The inhibition was inactive: -4.3%.

Q: How did the inhibition turn out when `Cc1cc(SC(NC(=O)c2ccc(F)cc2)C(Cl)(Cl)Cl)ncn1` (centres undefined) was run?
A: Its inhibition is inactive: 2.52%.

Q: `CCOP(=O)(Nc1ccccc1)OCC` was tested. Which inhibition did it give?
A: Its inhibition is inactive: 0.33%.

Q: `O=P(Nc1nc2ccc(Cl)cc2s1)(c1ccccc1)c1ccccc1` was tested. Which inhibition did it give?
A: The inhibition was inactive: 6.24%.

Q: For `CN(C)P(=O)(N(C)C)n1c(Nc2ccccc2)nnc1-c1ccccc1`, which inhibition is on record?
A: The inhibition was inactive: 3.1%.

Q: Which inhibition does the source give for `CCCC1OP(N)(=O)OCC1CC` (centres undefined) here?
A: Its inhibition is inactive: -1.44%.

Q: `CC(=O)Nc1ccc([As](=O)(O)O)cc1` was tested. Which inhibition did it give?
A: The inhibition was inactive: -5.38%.

Q: `O=C(O)c1ccccc1[As](=O)(O)O` was tested. Which inhibition did it give?
A: The inhibition was inactive: 1.72%.

Q: With `Nc1cccc2ccc([As](=O)(O)O)cc12` as the molecule, how does the inhibition read?
A: Its inhibition is inactive: 13.7%.

Q: Which inhibition does the source give for `CCN(N=Nc1nonc1N)c1nonc1N` here?
A: Its inhibition is inactive: -5.31%.

Q: For `CN(C(=O)Cc1ccccc1)C1CC[C@@]2(CCCO2)C[C@@H]1N1CCCC1` (some centres undefined), which inhibition is on record?
A: Its inhibition is inactive: 0.34%.

Q: Which inhibition does the source give for `O=C(Nc1cc([As](=O)(O)O)ccc1O)c1ccccc1` here?
A: Its inhibition is inactive: 1.5%.

Q: Which inhibition does the source give for `O=P1(N(CCCl)CCCl)OCCCS1` (centres undefined) here?
A: The inhibition was inactive: -0.12%.

Q: How did the inhibition turn out when `O=C(O)CNc1ccc([As](=O)(O)O)cc1` was run?
A: Its inhibition is inactive: -6.86%.

Q: For `COC(=O)C1(C)COP(=O)(Nc2ccccc2)OC1` (centres undefined), which inhibition is on record?
A: Its inhibition is inactive: -7.23%.

Q: How did the inhibition turn out when `O=[N+]([O-])c1cccc(NC2=NCC(CBr)S2)c1` (centres undefined) was run?
A: The inhibition was inactive: -9.68%.

Q: Which inhibition does the source give for `O=[N+]([O-])c1ncn(CCn2ncnc2[N+](=O)[O-])n1` here?
A: The inhibition was inactive: -10.6%.

Q: How did the inhibition turn out when `CC(C)(C)C(=O)NC(Sc1ccncn1)C(Cl)(Cl)Cl` (centres undefined) was run?
A: The inhibition was inactive: 2.57%.

Q: With `CCc1nc2c(n1)c1c(non1O)c1c2no[n+]1[O-]` as the molecule, how does the inhibition read?
A: The inhibition was inactive: -1.82%.

Q: With `O=[N+]([O-])c1cc([N+](=O)[O-])c(CCNc2ccccc2)c([N+](=O)[O-])c1` as the molecule, how does the inhibition read?
A: The inhibition was inactive: -7.08%.

Q: How did the inhibition turn out when `Cc1ccc(NP(=O)(Oc2ccccc2)Oc2ccccc2)nc1` was run?
A: Its inhibition is inactive: 2.49%.

Q: With `O=[N+]([O-])c1cccc2n[nH]nc12` as the molecule, how does the inhibition read?
A: Its inhibition is inactive: -2.58%.

Q: For `CC(=O)N1C2C3N(C(C)=O)C1C1N(C(C)=O)C(C(N1C(C)=O)N3C(C)=O)N2C(C)=O`, which inhibition is on record?
A: The inhibition was inactive: -3.65%.

Q: How did the inhibition turn out when `COc1ccc(C2=NCC(CBr)S2)cc1` (centres undefined) was run?
A: The inhibition was inactive: 1.6%.

Q: `CC1CCN(C(=O)Oc2c(Cl)cc(Cl)c3cccnc23)CC1` was tested. Which inhibition did it give?
A: Its inhibition is inactive: 3.58%.

Q: `c1cc(-c2nn[nH]n2)ccc1-c1nn[nH]n1` was tested. Which inhibition did it give?
A: Its inhibition is inactive: -1.01%.

Q: With `CN(C)C(=O)OCCc1n(C)cc[n+]1C` as the molecule, how does the inhibition read?
A: The inhibition was inactive: 2.82%.

Q: `CC(C)c1nc(Nc2ccccc2)n(P(=O)(N(C)C)N(C)C)n1` was tested. Which inhibition did it give?
A: The inhibition was inactive: 2.06%.

Q: `CC(C)=N/N=C(\N)N[N+](=O)[O-]` was tested. Which inhibition did it give?
A: The inhibition was inactive: 2.86%.

Q: Which inhibition does the source give for `CCN(/C(=N/P(=O)(N1CCOCC1)N1CCOCC1)N1CCOCC1)c1ccc(OC)cc1` here?
A: Its inhibition is inactive: 1.76%.

Q: `C[N+]1=C2C=CC=CC=C2SC12C([N+](=O)[O-])=CC([N+](=O)[O-])=C[C-]2[N+](=O)[O-]` (centres undefined) was tested. Which inhibition did it give?
A: Its inhibition is inactive: 8.54%.

Q: For `Nc1ccc([As](=O)(O)c2ccc(N)cc2)cc1`, which inhibition is on record?
A: Its inhibition is inactive: -13.1%.
